{"source": "patent US9226893B2", "about": "“Method for storing silica-based material, package produced with the method and use of package for packaging of silica-based products” (DelSiTech Oy, priority 2006, dated 2016)", "origin": "cited, not measured here", "settings": "after 2 months of aging (dry-aged, wash-aged or wet-aged), relative to solution", "data": [{"substance": "albumin: Human serum albumin entrapped in TEOS-derived silica gels (literature)", "values": [{"measurement": "retained ligand binding ability", "value": "less than 15%"}]}]}
